# Values quoted from earlier work in patent US20070004639A1, “Methods and compositions for treating Parkinson's disease” (BodyBio, Inc., priority 2005, published 2007).
# System: Parkinson's Disease
# Settings: in vivo; cited from earlier work
substance,measurement,value
carbidopa/levodopa,patients developing motor complications,50-80%
